Assay [1] concerns the target T1, human big-endothelin-1 (big-ET-1) (human).
T1 peptide: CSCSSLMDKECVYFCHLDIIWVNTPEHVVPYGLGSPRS
The assay is described as follows: cell-based or functional assay.

The target of assay [2] is T2, mouse big-ET-1 (mouse).
T2 peptide: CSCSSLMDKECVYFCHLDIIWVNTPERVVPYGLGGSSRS
The assay is described as follows: cell-based or functional assay.

The target in assay [3] is T1, human big-endothelin-1 (big-ET-1). The experiment in a line: SPR (Biacore T200), 37 C, mAb capture, peptide analyte. How it is done: Measurements were conducted on a T200 Biacore instrument (Biacore Life Sciences division of GE Healthcare, Piscataway, N.J.). […] Peptide binding was monitored for 3 min while dissociation of mAb-bound peptide was monitored for 4 min in HBST running buffer (0.01 M HEPES pH 7.4, 0.15 M NaCl, 3 mM EDTA, 0.005% v/v Surfactant P20). Kinetic association (kₐ) and dissociation (kd) rate constants were determined by processing and fitting the data to a 1:1 binding model using Scrubber 2.0 curve fitting software.
(In general: Surface plasmon resonance follows binding to a sensor surface in real time, without labels.)

B1: H4H6335P (antibody, V domains shown)
VH: EVQLVESGGGLVKPGGSLRLSCAASGFTFSNDWMSWVRQAPGKGLEWVGRIKRKTDGGTTDYAAPVKGRFTISRDDSKNTLYLQMNSLKTEDTAVYYCTTGGYERGGQGTLVTVSS
VL: [omitted - about 100 residues]LTFGGGTKVEIK
notes: Human IgG4 Fc (prefix H4H)
As a reminder, the Kd is the constant that tells how readily two partners part at equilibrium. Low values mean higher affinity, high ones lower affinity. What is called koff is the rate constant with which the complex falls apart. As usually defined, the kon is the second-order rate constant of association. A low value points to slower complex formation. B1: the “Blocking IC50(M), 10 nM hBig-ET-1 + 3 nM hECE1; 293/ETaR/NFAT-Luc luciferase” value in assay [1] amounted to 6.6e-09 M. The “Blocking IC50(M), 20 nM mBig-ET-1 + 5 nM mECE1; 293/ETaR/NFAT-Luc luciferase” value in assay [2] was over 1e-07 M. In addition, in assay [3], the Kd stood at 5.34 nM, the “T½” value turned out to be 3 min, the koff was 0.00437 s⁻¹ and the kon was 818000 M⁻¹ s⁻¹.

The values above are taken from patent US20130216547A1 (Regeneron, published 2013).
